Test results reported in patent EP4342890A1, “PLATFORM AND SCAFFOLD FOR FAP TARGETING AGENTS” (Erasmus University Rotterdam Medical Center, priority 2022, dated 2024).

Each molecule was assayed against T1, FAP (Homo sapiens, UniProt Q12884) (assay: In vitro inhibition assay on human FAP (Z-GP-AMC substrate)). Settings: enzymatic assay; 20 µM Z-GP-AMC, 20 nM FAP; unit inferred.
T1 sequence (Q12884 1-760): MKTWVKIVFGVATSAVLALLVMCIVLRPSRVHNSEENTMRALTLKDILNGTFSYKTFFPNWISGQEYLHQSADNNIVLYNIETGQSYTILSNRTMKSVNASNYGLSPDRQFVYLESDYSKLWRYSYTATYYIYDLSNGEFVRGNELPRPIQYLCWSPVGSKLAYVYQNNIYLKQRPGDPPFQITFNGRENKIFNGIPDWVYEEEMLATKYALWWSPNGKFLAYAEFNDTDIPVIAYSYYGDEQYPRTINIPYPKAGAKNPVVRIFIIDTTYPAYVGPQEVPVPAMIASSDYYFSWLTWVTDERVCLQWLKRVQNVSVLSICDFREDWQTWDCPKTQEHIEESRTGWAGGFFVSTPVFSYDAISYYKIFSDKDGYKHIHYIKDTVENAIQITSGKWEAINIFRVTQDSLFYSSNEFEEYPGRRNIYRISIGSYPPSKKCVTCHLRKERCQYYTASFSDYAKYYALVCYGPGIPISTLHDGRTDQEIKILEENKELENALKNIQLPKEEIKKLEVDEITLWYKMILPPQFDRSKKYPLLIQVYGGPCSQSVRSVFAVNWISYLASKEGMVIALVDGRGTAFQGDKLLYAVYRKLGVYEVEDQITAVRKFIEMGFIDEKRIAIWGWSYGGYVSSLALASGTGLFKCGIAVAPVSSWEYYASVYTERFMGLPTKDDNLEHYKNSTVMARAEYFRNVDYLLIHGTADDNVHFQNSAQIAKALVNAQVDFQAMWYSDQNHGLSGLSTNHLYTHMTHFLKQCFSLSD
Type: biochemical
Experimental: Enzymatic activity of human FAP (hFAP) and mouse FAP (mFAP) on the Z-GP-AMC substrate was measured at room temperature on a Hidex microplate reader by monitoring the fluorescence at an excitation wavelength of 360 nm and an emission wavelength of 465 nm. The reaction mixture contained 20 µM substrate, 20 nM FAP, assay buffer (50 mM Tris, 100 mM NaCl, 1 mM EDTA, pH 7.4) and tested compound (serial dilution from 10^-6 to 10^-12) in a total volume of 50 µL. The IC50 value is defined as the concentration of inhibitor required to reduce the enzyme activity by 50% after addition of the substrate.
Molecule “1-(6-((3-((4-((2-((S)-2-Cyano-4,4-difluoropyrrolidin-1-yl)-2-oxoethyl)carbamoyl)quinolin-8-yl)oxy)propyl)amino)-6-oxohexyl)-3,3-dimethyl-5-sulfo-2-((1E,3E)-5-((E)-1,3,3-trimethyl-5-sulfoindolin-2-ylidene)penta-1,3-dien-1-yl)-3H-indol-1-ium [eFAP-7]” has an IC50 of 2.1 ± 0.6 nM. Molecule `N#C[C@@H]1CC(F)(F)CN1C(=O)CNC(=O)c1ccnc2c(OCCCNC(=O)CN3CCC(NC(=O)CN4CCN(CC(=O)O)CCN(CC(=O)O)CCN(CC(=O)O)CC4)CC3)cccc12` [eFAP-10, (S)-2,2',2"-(10-(2-((1-(2-((3-((4-((2-(2-Cyano-4,4-difluoropyrrolidin-1-yl)-2-oxoethyl)carbamoyl)quinolin-8-yl)oxy)propyl)amino)-2-oxoethyl)piperidin-4-yl)amino)-2-oxoethyl)-1,4,7,10-tetraazacyclododecane-1,4,7-triyl)triacetic acid] has an IC50 of 2.1 ± 0.3 nM. Molecule `N#C[C@@H]1CC(F)(F)CN1C(=O)CNC(=O)c1ccnc2c(OCCCNC(=O)CN3CCN(C(=O)CN4CCN(CC(=O)O)CCN(CC(=O)O)CCN(CC(=O)O)CC4)CC3)cccc12` [eFAP-12, (S)-2,2',2"-(10-(2-(4-(2-((3-((4-((2-(2-Cyano-4,4-difluoropyrrolidin-l-yl)-2-oxoethyl)carbamoyl)quinolin-8-yl)oxy)propyl)amino)-2-oxoethyl)piperazin-1-yl)-2-oxoethyl)-1,4,7,10-tetraazacyclododecane-1,4,7-triyl)triacetic acid] has an IC50 of 2.1 ± 0.7 nM.
